Values of other authors as cited in patent publication US20250152650A1, “COMPOSITIONS FOR TREATING SEA LICE IN SALMON AND RELATED METHODS” (KEMIN INDUSTRIES, INC., priority 2023, published 2025).

System: sensitive copepodid lice
Details: in salmon tissues (in vivo) and 24 hr bioassay baths (in vitro); cited from earlier work

Substance: emamectin benzoate [EMB, reference compound]
- concentrations that appear to be lethal to sensitive copepodid lice: 1-10 ppb
